The source of these data is ChEMBL document CHEMBL1914429, “Potent and selective 2-naphthylsulfonamide substituted hydroxamic acid inhibitors of matrix metalloproteinase-13” (Bioorg Med Chem Lett, 2011).

Protein sequences, listed by entry. Tags and fused reporters are not part of them. Lines headed by an entry give the natural chain unless they say otherwise; changes in a name come on top.
UniProt P08253: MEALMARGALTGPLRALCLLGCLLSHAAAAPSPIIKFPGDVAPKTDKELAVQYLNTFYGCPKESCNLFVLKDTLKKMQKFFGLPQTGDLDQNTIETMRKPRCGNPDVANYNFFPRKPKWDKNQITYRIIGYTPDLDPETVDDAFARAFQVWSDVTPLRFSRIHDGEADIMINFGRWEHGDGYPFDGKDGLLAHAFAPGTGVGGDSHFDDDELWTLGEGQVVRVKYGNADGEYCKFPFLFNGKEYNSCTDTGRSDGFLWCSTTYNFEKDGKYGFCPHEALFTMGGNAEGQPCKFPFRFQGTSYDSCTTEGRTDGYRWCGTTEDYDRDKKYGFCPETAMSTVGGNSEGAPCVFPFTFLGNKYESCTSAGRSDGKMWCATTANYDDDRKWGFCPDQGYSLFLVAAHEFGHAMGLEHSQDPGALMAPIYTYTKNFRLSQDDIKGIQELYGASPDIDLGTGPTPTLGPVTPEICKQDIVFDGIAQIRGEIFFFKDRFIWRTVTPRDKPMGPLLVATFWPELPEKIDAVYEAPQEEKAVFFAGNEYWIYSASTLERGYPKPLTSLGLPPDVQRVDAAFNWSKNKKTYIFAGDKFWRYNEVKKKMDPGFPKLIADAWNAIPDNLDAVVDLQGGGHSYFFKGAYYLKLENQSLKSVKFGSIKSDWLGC

This test deals with 72 kDa type IV collagenase (Homo sapiens, UniProt P08253).

Broadly, the IC50 is the point on the concentration scale where inhibition reaches its midpoint. On to `CC(C)[C@H](C(=O)NO)N(Cc1cccnc1)S(=O)(=O)c1ccc2ccccc2c1`, for which the midpoint of inhibition, the IC50, lay at 25 nM.
